Only a part is listed here, and it is no random draw. Calls of active or inactive are those of the source. No stated cut-off is given here; in the data, active means response mostly above about 7.3% (no sharp cut-off); inactive means mostly below about 5.4%.

The nature of the test: regulators of yeast V-ATPase proton pumping, primary screen, pHLuorin cytosolic pH fluorescence (AID 504577). Further: actives read high. Conditions: S. cerevisiae, at 10 µM, stronger effect = higher value.
As for `CCC(=O)N(c1ccccc1)C1(COC)CCN(CCn2nnn(CC)c2=O)CC1`, the response was inactive: -2.84%.
The result for `CCC(=O)N(c1ccccc1)C1(COC)CCN(CCc2cccs2)CC1` reads inactive: 1.08%.

Source of the values: PubChem BioAssay AID504577 (NMMLSC, 2011).
